According to patent publication US20220054643A1, “SAPONIN CONJUGATED TO EPITOPE-BINDING PROTEINS” (priority 2018, published 2022):

Legend:
human A431 tumor cells = experiment: A431 xenograft mouse tumor model, tumor volume; type: in vivo
Method: Female Balb/c nude mice were injected subcutaneously with a suspension of human A431 tumor cells. Under the skin of the mice, a human epidermal carcinoma developed in the xenograft animal tumor model. After injection of the tumor cells, the xenograft tumor was allowed to develop to a size of approximately 170-180 mm^3. The A431 tumor cells have the following characteristics: high EGFR expressors, medium CD71 expressors, low HER2 expressors.
In Table A, the results of the treatment of control mice and tumor-bearing mice are presented. […] The ADCs trastuzumab-saporin (covalent conjugate) and anti-CD71 mAb (OKT-9, IgG)-saporin (covalent conjugate) were tested for their tumor-attacking efficacy in the mice, measured as tumor volume in time after start of the treatment with the ADCs. […]
The conjugate was tested in a A431 (EGFR^++) xenograph mouse tumor model for EGFR tumor targeted cell killing as illustrated in FIG. 47. Dosings started at day 12 when tumors reached ˜150 mm^3 in size and tumor volume was determined after every dosing.
The mouse study was performed at CrownBio (China) according to standard protocols and procedures. […] Tumor volume was monitored and tumor samples were collected for gene silencing analysis (see below)

[1] = tested on: HSP27 mRNA in A2058 cells; experiment: HSP27 gene silencing in cells (HSP27 mRNA expression); type: cell-based, human; settings: for IC50: A2058, conjugate alone
HSP27 mRNA in A431 cells = experiment: as above; type: cell-based, human; settings: for IC50: A431, agent alone
HSP27 mRNA = experiment: A431 xenograft mouse tumor model, HSP27 gene silencing in tumors (qPCR); type: in vivo; settings: 1 dosing 30 mg/kg; tumors 72 h after first dosing
Method: Dosings started at day 12 when tumors reached ˜150 mm^3 in size and tumor samples were collected at 72 h after the first dosing and analysed for HSP27 gene expression compared to control gene mRNA expression levels (reference genes). […] Compared to the vehicle control tumors, a reduction of 40% HSP27 gene silencing was observed.
Dosing started at day 12 when tumors reached ˜150 mm^3 in size and HSP27 mRNA expression was determined. For this, tumor samples were collected at 72h after the first dosing and analysed for HSP27 gene expression levels compared to cellular control mRNA expression levels (reference genes).
The mouse study was performed at CrownBio (China) according to standard protocols and procedures. Model: Subcutaneous A431 Human Epidermoid Carcinoma Xenograft Model in female BALB/c nude Mice. Tumor volume was monitored and tumor samples were collected for gene silencing analysis (see below)

Substance | IC50 [1] | IC50 (HSP27 mRNA in A431 cells) | reduction in HSP27 mRNA expression compared to single dosing of mono-conjugates (HSP27 mRNA) | reduction of HSP27 gene expression compared to vehicle control (HSP27 mRNA) | further results
Cetuximab-SO1861: cetuximab covalently conjugated with SO1861 via EMCH to reduced cysteines |  |  |  |  | tumor size (volume in mm^3) (human A431 tumor cells; A431 xenograft, female Balb/c nude mice, ~170-180 mm^3 at start, sub-optimal ADC dose): 2000 mm^3; outcome (death/euthanasia or survival) (human A431 tumor cells; same study as tumor size, Table A): death/euthanasia
cetuximab-(Cys-L-SO1861)^3,8(Lys-L-HSP27BNA)^3,8: cetuximab with SO1861 (labile) and HSP27BNA oligo (labile) | > 100 nM | 3 nM |  |  | 
cetuximab-(Cys-L-SO1861)^3,8: SO1861-EMCH conjugated via cysteine residues to cetuximab |  |  |  |  | HSP27 gene silencing activity ([1]; A2058 (EGFR-), agent titrated + 100 nM cetuximab-(Lys-L-HSP27BNA)^4): no gene silencing activity was observed; IC50 HSP27 gene silencing (HSP27 mRNA in A431 cells; A431 (EGFR++), agent titrated + fixed 100 nM cetuximab-(Lys-L-HSP27BNA)^4): strong HSP27 gene silencing
cetuximab-(Cys-L-SO1861)^3,9(Lys-L-HSP27BNA)^1,8: cetuximab with SO1861-EMCH (Cys, DAR 3,9) and HSP27BNA (Lys, labile, DAR 1,8) |  |  | 40% | 25% | 
cetuximab-Cys-(SO1861-L-trifunctional linker-L-HSP27BNA)^3,7: SO1861-L-trifunctional linker-L-HSP27BNA conjugated with its third arm to cysteine residues of cetuximab | 100 nM | 2 nM | 40% | 25% | 
